{"source": "patent US20100130599A1", "about": "“CYP2C9*8 Alleles Correlate With Decreased Warfarin Metabolism And Increased Warfarin Sensitivity” (priority 2008, published 2010)", "excerpt": "A total of 226 African American patients having demographic and clinical parameters as depicted in Table 1 were studied.\nPatients were enrolled from the pharmacist-managed anticoagulation clinics at the University of Illinois Medical Center at Chicago and at the University of Florida in Gainesville. […] Aquilante, C. […] Pharmacogenomics 8, 1535-44 (2007). Patients with a history of liver dysfunction or serum transaminase levels greater than 3 times the upper limit of normal were excluded.\nAfter obtaining written informed consent and authorization for medical record review, a buccal cell sample was collected for genetic analysis, as previously described. Andrisin, T. E., Humma, L. M. & Johnson, J. A. Collection of genomic DNA by the noninvasive mouthwash method for use in pharmacogenetic studies. Pharmacotherapy 22, 954-60 (2002). Demographic, clinical, and social history were assessed through patient interview and review of the medical record. This study was approved by the Institutional Review Board at each institution.\nGenomic DNA was isolated from buccal cells using a commercially available kit (PureGene,® Qiagen, Valencia, Calif.) according to kit manufacturer instructions. The CYP2C9 R144C (*2), […] (*3) and D360E (*5) alleles and VKORC1 −1639G>A genotype were determined as previously described. Aquilante, C. […] The VKORC1 −4451A>C, 497G>T, and 3730A>G genotypes, and APOE 112C>T and 158C>T genotypes were determined by PCR and pyrosequencing. […]\nPrior to determination of additional genotypes, genomic DNA was amplified by the whole genome amplification (WGA) technique, using the REPLI-g midi kit (Qiagen). […] Proc Natl Acad Sci USA 99, 5261-6 (2002) The fidelity of amplification was verified by comparing genotypes for CYP2C9*2, *3, *5 and VKORC1 −1639G>A determined before and after WGA. […] The CYP2C9*8 genotype was determined by bi-directional DNA sequencing at Agencourt Biosciences after uniplex PCR amplification performed by Osmetech Molecular Diagnostics.\nData are expressed as numbers (percentages), mean±SD, or median (inter-quartile range). […]", "note": "Where two headings read alike, the source gives them in different places."}
{"smiles": "CC(=O)CC(c1ccccc1)c1c(O)c2ccccc2oc1=O", "note": "(stereo not drawn) [warfarin]", "values": [{"measurement": "Median (IQR) dose", "setting": "CYP2C9 any variant, n=52", "result": "33.8 (28.0-40.6) mg/week"}, {"measurement": "Median (IQR) dose", "setting": "VKORC1 −1639G > A AA, n=4", "result": "33.8 (27.8-35.3) mg/week"}, {"measurement": "Median (IQR) dose", "setting": "VKORC1 −1639G > A GG, n=189", "result": "42.5 (33.8-56.3) mg/week"}]}
